Test results: patent publication US9034928B2, “Methods for metabolic imaging” (IMAGNX, Inc., priority 2011, dated 2015)

Tests used:
[1] = system: RENCA tumors and breast cancer (4T1) tumors
[2] = ^13C FISP imaging in vivo (relative location after injection); conditions: mouse
[3] = system: rat brain; experiment: Imaging of TCA cycle metabolism in a rat brain after carotid arterial injection; conditions: for delivery to the brain / blood-brain barrier: carotid arterial injection, rat

metabolism in tumors ([1]; ^13C CSI, RENCA and breast (4T1)): observed in both tumors
biodistribution in the two types of tumors ([1]; tail vein, 10-20 μmol, RENCA vs breast (4T1)): different biodistribution
location of the hyperpolarized compound and its metabolites ([2]; intraperitoneal injection, 20 μmol): stay primarily in the peritoneum
location of the hyperpolarized molecule ([2]; intravenous injection, 10 μmol): collects in the bladder and ureters
downstream TCA cycle metabolic products identified ([3]; ^13C MR spectroscopy of the rat brain): succinate, malate, and glutamate
delivery to the brain / blood-brain barrier [3]: delivered to the brain
delivery to the brain / blood-brain barrier ([3]; listed as diethyl 1-^13C 2,3-d2 succinate): crosses the blood-brain barrier
time after administration at which TCA cycle metabolites are observed ([3]; rat brain): ≤ 5 s
SMILES: [2H]C(C(=O)OCC)C([2H])[13C](=O)OCC (centres unmarked) [diethyl 1-^13C 2,3-d2 succinate]
